{"source": "paper PMC9313104", "about": "“Interaction Interface of Aβ42 with Human Na,K-ATPase Studied by MD and ITC and Inhibitor Screening by MD” (Biomedicines, 2022)", "biological_target": "duck Na,K-ATPase (Anas platyrhynchos, UniProt Q7ZYV1)", "experiment": "Isothermal titration calorimetry (MicroCal iTC200), Aβ42 binding to Na,K-ATPase in different states", "conditions": "25 °C; for Ka, affinity constant: 10 mM imidazole, 0.1 mM DTT, measured three to four times, SD did not exceed ±20%; for Kd: calculated as 1/Ka, read-out: Kd, dissociation constant; for ∆G, Gibbs energy: calculated from ∆G = −RTlnKa", "protocol": "Briefly, the peptide was dissolved in hexafluoroisopropanol (Fluka), dried, and stored at −80 °C. Before the experiment, the peptide was dissolved in DMSO for 1 h and then diluted in the buffer solution.\nPurified preparation of Na,K-ATPase was obtained from duck salt glands as described elsewhere.\nExperiments were carried out at 25 °C in four buffers, as described elsewhere: (E2P buffer) 10 mM imidazole, 3 mMTris/Pi, 1 mM EDTA, 3 mM MgCl2, 0.1 mM DTT, pH 7.5; (E1/E2 buffer) 10 mM imidazole, 130 mM NaCl, 20 mM KCl, 3 mM MgCl2, 0.1 mM DTT, pH 7.5; (E1 buffer) 10 mM imidazole, 1 mM EDTA, 3 mM NaCl, 0.1 mM DTT, pH 7.5; (E2 buffer) 10 mM imidazole, 1 mM EDTA, 3 mM KCl, and 0.1 mM DTT, pH 7,5. […] Aliquots (2.6 μL) of ligands were injected into a 0.24 mL cell containing the protein solution to achieve a complete binding isotherm. […] Equivalent amounts of DMSO was added to protein solutions to avoid thermal effects of dissolution.\nThe effective heat of binding was obtained by subtracting the heat of dilution from the heat of reaction. MicroCal Origin software was used to fit isothermal titration curves. […] The Gibbs energy and enthalpy changes […] were estimated according to the equations: ∆G = −RT lnKa and ∆G = ∆H − T∆S.", "key": {"[1]": {"conditions": "OBN state (26 µM ouabain), pH 7.5"}}, "note": "Like-named read-outs stand apart in the source and are kept apart here.", "data": [{"substance": "Aβ42: Aβ42 peptide was synthesized by Biopeptide", "values": [{"measurement": "Ka, affinity constant", "setting": "E1/E2 state, 130 mM NaCl, 20 mM KCl, 3 mM MgCl2, pH 7.5", "result": 770000, "unit": "M⁻¹"}, {"measurement": "Kd", "setting": "E1/E2 state, pH 7.5", "result": 1.3, "unit": "µM"}, {"measurement": "∆G, Gibbs energy", "setting": "E1/E2 state, pH 7.5", "result": -8.02, "unit": "kcal/mol"}, {"measurement": "Ka, affinity constant", "setting": "E1 state, 1 mM EDTA, 3 mM NaCl, pH 7.5", "result": 370000, "unit": "M⁻¹"}, {"measurement": "Kd", "setting": "E1 state, pH 7.5", "result": 2.7, "unit": "µM"}, {"measurement": "∆G, Gibbs energy", "setting": "E1 state, pH 7.5", "result": -7.56, "unit": "kcal/mol"}, {"measurement": "Ka, affinity constant", "setting": "E2P state, 1 mM EDTA, 3 mM MgCl2, 3 mM Tris/Pi, pH 7.5", "result": 510000, "unit": "M⁻¹"}, {"measurement": "Kd", "setting": "E2P state, pH 7.5", "result": 2, "unit": "µM"}, {"measurement": "∆G, Gibbs energy", "setting": "E2P state, pH 7.5", "result": -7.78, "unit": "kcal/mol"}, {"measurement": "Kd", "setting": "E2 state, pH 7.5", "result": 2, "unit": "µM"}, {"measurement": "∆G, Gibbs energy", "setting": "E2 state, pH 7.5", "result": -7.76, "unit": "kcal/mol"}, {"measurement": "Kd", "setting": "[1]", "result": 1.2, "unit": "µM"}, {"measurement": "∆G, Gibbs energy", "setting": "[1]", "result": -8.08, "unit": "kcal/mol"}, {"measurement": "Ka, affinity constant", "setting": "OBN state (complex with ouabain), 26 µM ouabain, 1 mM EDTA, 3 mM MgCl2, 3 mM Tris/Pi, pH 7.5", "result": 830000, "unit": "M⁻¹"}]}]}
